This note sets out measurements from ChEMBL document CHEMBL4261646, “Bisphosphonate Inhibitors of Mammalian Glycolytic Aldolase” (J Med Chem, 2018).

The species entered for test [1] is Homo sapiens. Description: Slow binding inhibition of fructose-bisphosphate aldolase (unknown origin) assessed as substrate Vm using FBP as substrate and NADH by UV-Vis spectrophotometry dependent TIM/GDH coupled assay based Dixon plot analysis.
For test [2], the species on record is Homo sapiens. Briefly: Slow binding inhibition of fructose-bisphosphate aldolase (unknown origin) assessed as on-rate binding constant of slow binding event using FBP as substrate and NADH by UV-Vis spectrophotometry dependent TIM/GDH coupled assay based Dixon plot analysis.
The species named for test [3] is Homo sapiens. Description: Slow binding inhibition of fructose-bisphosphate aldolase (unknown origin) assessed as off-rate binding constant of slow binding event using FBP as substrate and NADH by UV-Vis spectrophotometry dependent TIM/GDH coupled assay based Dixon plot analysis.

As for `O=P([O-])([O-])Oc1ccc2cc(C(P(=O)([O-])[O-])P(=O)([O-])[O-])ccc2c1.[Li+].[Li+].[Li+].[Li+].[Li+].[Li+]`, the Vmax in the test filed under Homo sapiens [1] worked out at 11.7 U/mg. Besides, the K in the test listed under Homo sapiens [2] is 0.064 min⁻¹; in the test filed under Homo sapiens [3], 0.01 min⁻¹.
